{"source": "DBAASP", "key": {"[1]": {"tested_on": "Escherichia coli K-12", "test": "≥ marks a high value that may be exact or a test limit, other limits are often not marked, values filed in µg/mL are converted to µM"}, "[2]": {"tested_on": "Staphylococcus aureus ATCC 12600", "test": "≥ marks a high value that may be exact or a test limit, other limits are often not marked, values filed in µg/mL are converted to µM"}}}
{"smiles": "CC[C@H](C)[C@H](NC(=O)[C@@H]1CCCN1C(=O)[C@H](CCCCN)NC(=O)[C@H](CC(C)C)NC(=O)[C@H](C)NC(=O)[C@@H](NC(=O)[C@@H](NC(=O)[C@H](CC(C)C)NC(=O)[C@@H](NC(=O)[C@H](CCCCN)NC(=O)[C@H](CCCCN)NC(=O)[C@H](C)NC(=O)[C@H](C)NC(=O)[C@H](CO)NC(=O)[C@@H](NC(=O)[C@H](CC(C)C)NC(=O)[C@H](CCCCN)NC(=O)[C@H](CCCCN)NC(=O)[C@H](CC(C)C)NC(=O)[C@H](Cc1ccccc1)NC(=O)[C@H](CCCCN)NC(=O)[C@H](CCCCN)NC(=O)[C@H](Cc1c[nH]c2ccccc12)NC(=O)[C@@H](N)CCCCN)[C@@H](C)O)C(C)C)[C@@H](C)O)[C@@H](C)O)C(=O)N[C@@H](CO)C(=O)N[C@@H](CO)C(=O)O", "note": "[KWKKFLKKLTSAAKKVLTTALKPISS]", "values": [{"measurement": "MIC", "setting": "[1]", "result": 2, "unit": "µM"}, {"measurement": "MIC", "setting": "[2]", "result": 8, "unit": "µM"}]}
{"smiles": "CC(C)C[C@H](NC(=O)[C@H](C)NC(=O)[C@@H](N)C(C)C)C(=O)N[C@@H](CC(N)=O)C(=O)N[C@@H](CCC(=O)O)C(=O)N[C@@H](CC(N)=O)C(=O)N[C@@H](CC(C)C)C(=O)N[C@@H](CC(C)C)C(=O)N[C@@H](CCCN=C(N)N)C(=O)O", "note": "[VALNENLLR]", "values": [{"measurement": "MIC", "setting": "[2]", "result": "≥ 128", "unit": "µM"}]}
